Assay results taken from patent US20230309554A1, “Polymer Carriers for Delivery of Agrochemicals in Crop Plants” (Carnegie Mellon University, priority 2020, published 2023).

Test system: tomato plants
Design: species or system Solanum lycopersicum
Details: in vivo
Description: Plant growth. […] The sterilized seeds were germinated in petri-dish on water-soaked filter paper under dark for 10 days. Afterwards, the seedlings were transplanted to 100 mL plastic cups. Each seedling was grown hydroponically using 1⁄4 strength Hoagland's solution aerated using air pumps. […] Leaf carbon assimilation rate and chlorophyll fluorescence. Plant leaf carbon assimilation and chlorophyll fluorescence was measured by a Li-Cor Li-6800 portable photosynthesis system. […] Combined heat and excess light stress. The carbon (A-Ci) and light response (A-PAR) curves of treated leaves were measured before stress conditions. […] The carbon and light response curves were measured again and compared with the curve acquired before stress. […] Light adapted ([…]) chlorophyll fluorescent test were also performed before and after stress conditions. The A-Ci curves were analyzed according to previously reported model for C3 plants: […]

poly(acrylic acid)-block-poly((2-(methylsulfinyl)ethyl acrylate)-co-(2-(methylthio)ethyl acrylate)) [PAA25-b-P(MSEA75-co-MTEA50)]
Plant toxicity (photosynthetic activity before stress): did not induce plant toxicity
